Drawing on PubChem BioAssay AID793 (The Scripps Research Institute Molecular Screening Center, 2007), this text covers inhibition for 13 compounds.

Protein sequences, listed by entry. Tags and fused reporters are not part of them.
UniProt P49146, whole entry: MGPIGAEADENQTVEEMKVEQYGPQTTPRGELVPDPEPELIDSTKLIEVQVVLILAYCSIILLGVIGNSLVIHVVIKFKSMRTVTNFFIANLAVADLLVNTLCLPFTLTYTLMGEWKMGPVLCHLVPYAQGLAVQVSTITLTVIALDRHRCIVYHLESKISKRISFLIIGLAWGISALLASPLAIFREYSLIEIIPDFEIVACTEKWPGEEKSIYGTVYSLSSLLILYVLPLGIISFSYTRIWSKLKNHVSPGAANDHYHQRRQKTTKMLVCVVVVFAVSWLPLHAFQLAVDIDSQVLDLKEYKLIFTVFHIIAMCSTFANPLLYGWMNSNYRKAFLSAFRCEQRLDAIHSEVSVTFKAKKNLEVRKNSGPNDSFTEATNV

Structures are written as SMILES. The entries are a selection whose mix differs from that of the whole data set. Calls of active or inactive are those of the source. No stated cut-off is given here; in the data, active means inhibition above about 17%; inactive means the rest.

In general, inhibition refers to the relative decrease from the control value, in per cent.

This test addresses Neuropeptide Y receptor type 2 (Homo sapiens) (UniProt P49146). Put plainly: blockers of human neuropeptide Y Y2 receptor – cell-based, primary screen (AID 793).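 Further: 0% = vehicle with agonist challenge and 100% = reference antagonist with challenge.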 The note with it: NPY-Y2 expressing cells, antagonist mode; at 2.7 µM; active compounds read high.
Take `c1ccc(CN2CCC(Nc3ccccc3)CC2)cc1`: the inhibition was inactive: 2.52%.
Turning to `N/C(=N\O)c1c(N)no[n+]1[O-]`, the inhibition is inactive: 2.13%.
As for `O=C(OC1CN2CCC1CC2)C1c2ccccc2C=Cc2ccccc21` (stereo not drawn), the figure is inactive: 3.88%; as for `CCOc1ncccc1C(=O)NCC1(N2CCOCC2)CCCCC1`, inactive: -0.28%.
Take `CCC(CO)(C(=O)OC1CN2CCC1CC2)c1ccccc1` (stereo not drawn): the inhibition was inactive: 2.42%.
With `CCN1CCC(Nc2cccc(F)c2)CC1`, the inhibition was inactive: 2.9%.
Turning to `COc1ccc(NC2CCN(CCc3ccccc3)CC2)c(OC)c1`, the inhibition was inactive: 1.81%.
As for `O=C(NCC1(N2CCOCC2)CCCCC1)c1cc2ccccc2o1`, the inhibition was inactive: -0.03%.
On to `O=C(OC1CN2CCC1CC2)C1c2ccccc2Oc2ccccc21` (stereo not drawn), for which the inhibition is inactive: 7.6%.
As for `CN1CCC(Nc2cccc(F)c2)CC1`, the figure is inactive: 1.57%.
As to `N#CC1(Nc2ccccc2)CCN(CCc2ccccc2)CC1`, the inhibition was inactive: 1.19%.
In the case of `CN1CCN(CCOC(=O)C(O)(c2ccccc2)c2ccccc2)CC1`, the inhibition was inactive: 1.98%.
Regarding `O=C(NCC1(N2CCOCC2)CCCCC1)c1cc(=O)[nH]c2ccccc12`, the inhibition is inactive: 0.55%.
